According to PubChem BioAssay AID743280 (The Scripps Research Institute Molecular Screening Center, 2014):
The entries are a selection whose mix differs from that of the whole data set. Calls of active or inactive are those of the source.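 How the source made its calls: active means mean inhibition across triplicates above the hit cutoff set in the earlier primary screen (cut at about 19% in these data); inactive means the rest.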

Amino acid sequences for entries named in this document (tags omitted).
UniProt Q9NZ20, whole entry: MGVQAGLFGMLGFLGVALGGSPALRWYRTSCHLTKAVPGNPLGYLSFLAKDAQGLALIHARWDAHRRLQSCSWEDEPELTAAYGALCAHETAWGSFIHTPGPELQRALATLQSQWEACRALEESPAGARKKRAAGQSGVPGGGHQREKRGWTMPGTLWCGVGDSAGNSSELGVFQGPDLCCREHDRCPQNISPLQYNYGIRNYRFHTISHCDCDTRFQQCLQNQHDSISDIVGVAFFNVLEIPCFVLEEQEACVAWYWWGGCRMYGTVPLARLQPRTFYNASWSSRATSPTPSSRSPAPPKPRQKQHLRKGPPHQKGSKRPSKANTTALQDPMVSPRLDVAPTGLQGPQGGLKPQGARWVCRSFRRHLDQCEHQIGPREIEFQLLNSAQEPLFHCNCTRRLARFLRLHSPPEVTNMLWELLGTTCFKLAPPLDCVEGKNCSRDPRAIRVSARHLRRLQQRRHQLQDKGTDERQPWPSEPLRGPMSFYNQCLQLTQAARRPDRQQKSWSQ

These compounds were tested against Group 3 secretory phospholipase A2 (Homo sapiens) (UniProt Q9NZ20) (assay: HGIII-sPLA2 enzyme inhibition – biochemical, QFRET, triplicate, confirmation (AID 743280;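 further: 0% = enzyme with DMSO and 100% = DMSO wells lacking enzyme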)). Conditions: recombinant hGIII-sPLA2, BODIPY PC-A2 QFRET fluorescence; at 12.2 µM; active compounds read high.

| SMILES | inhibition |
| --- | --- |
| CCN1CCC(Nc2ccc(Cl)cc2)CC1 | inactive: 8.43% |
